# Some of the results follow.
# Test system: A. baumannii ATCC 17978
# Assay: relative growth (fraction of control); higher = less inhibition
# Settings: 50 µM
row,SMILES,relative growth
1,CC(=O)N/C=C1\C(=O)N(C)C(=O)C(C#N)=C1C,1.05
2,COC(=O)C1[C@H]2C[C@H]3c4[nH]c5ccccc5c4CCN3C[C@@H]2CC[C@@H]1O.Cl (stereo partly specified),0.911
3,CCCCC/C=C\C/C=C\C/C=C\C/C=C\CCCC(=O)O,1.2
4,O=S(=O)(NCC[C@H]1CC[C@@H](NS(=O)(=O)c2ccccc2Cl)[C@@H](CO)O1)c1ccc(F)cc1,1.12
5,Nc1ccc(OCc2ccccc2)cc1,0.677
6,NCC[C@H]1CC[C@@H](NC(=O)NC2CCCCC2)[C@@H](CO)O1,0.916
7,Nc1ccccc1C(=O)CC(N)C(=O)O (stereo unspecified),1.09
8,CS(=O)(=O)N1CCN(c2ccccc2)CC1,0.871
9,COCCOC(=O)N1C(=O)[C@@]2(c3cc(C#CC4=CCCCC4)ccc31)[C@H](c1ccc(OCCO)cc1)N1[C@H](c3ccccc3)[C@H](c3ccccc3)OC(=O)[C@H]1[C@@H]2C(=O)N1CCc2cc(OC)c(OC)cc2C1,0.989
10,C=CC[C@@H](CC(=O)N(CCO)Cc1ccccc1)C(=O)N[C@H](COC(=O)[C@H](CC=C)NC(=O)OCC1c2ccccc2-c2ccccc21)C(C)(C)C,0.775
11,O=C([O-])/C=C/C(=O)[O-].[Fe+2],0.962
12,CCNC(=O)C[C@H]1CC[C@H](NC(=O)C2CC2)[C@H](CO)O1,0.849
13,Cc1n[nH]c(N/N=C/c2ccccn2)nc1=O,0.702
14,Cn1cnc(S(=O)(=O)N[C@H]2CC[C@H](CC(=O)NCC3CC3)O[C@H]2CO)c1,1.1
15,NNC(=O)c1cccc(Cn2cccn2)c1,1.11
16,C=CCOC(=O)[C@H]1[C@@H]2C(=O)O[C@@H](c3ccccc3)[C@@H](c3ccccc3)N2[C@@H](c2ccc(OCCOC(=O)NCCCCCC(=O)NO)cc2)[C@@]12C(=O)Nc1ccc(I)cc12,0.82
17,CC(C)NC(=O)NCC[C@H]1CC[C@@H](NC(=O)CN(C)C)[C@@H](CO)O1,1.03
18,COC(=O)C1=CO[C@@H](O[C@@H]2O[C@H](CO)[C@@H](O)[C@H](O)[C@H]2O)[C@@H]2[C@@H](C)[C@@H](OC(=O)/C=C/c3ccc(O)cc3)[C@@H](O)[C@H]12,1.08
19,CO[C@@H](CN(C)C(=O)c1ccc2c(c1)OCO2)[C@H](C)CN([C@@H](C)CO)S(=O)(=O)c1ccc(Cl)cc1,1
20,CC1(C)CC[C@]2(C)CC[C@]3(C)C(=CCC4[C@@]5(C)CC[C@H](O)C(C)(C)C5CC[C@]43C)C2C1 (stereo partly drawn) [beta-AMYRIN],0.901
21,O=C1[C@H](CCC(O)c2ccc(F)cc2)[C@@H](c2ccc(O)cc2)N1c1ccc(F)cc1 (stereo partly specified),1.16
22,OC[C@@H](O)[C@H](O)[C@@H](O)[C@H](O)CO,0.949
23,CN(C)CC(=O)N[C@@H]1CC[C@@H](CCNS(=O)(=O)c2ccccc2)O[C@H]1CO,1.14
24,C[C@@H]1CN([C@H](C)CO)S(=O)(=O)c2ccc(C#CCC3CCCC3)cc2O[C@@H]1CN(C)C(=O)c1cnccn1,0.683
25,COc1ccccc1NC(=O)N(C)C[C@@H]1Oc2ncc(Br)cc2C(=O)N([C@H](C)CO)C[C@@H]1C,1
26,C(=N\c1nnc2nc[nH]n12)/c1ccco1,1.17

row,SMILES,relative growth
1,C=CCSCC1Nc2cc(Cl)c(S(N)(=O)=O)cc2S(=O)(=O)N1 (stereo unspecified),1.09
2,COCCNC(=O)C[C@H]1CC[C@@H](NS(=O)(=O)c2ccc(C)cc2)[C@H](CO)O1,0.984
3,CS(=O)(=O)c1nnc(N)s1,0.951
4,COC(=O)c1c(CC[C@@H](CO)NC(=O)N2CCC[C@H]2Cn2cc(-c3ccccn3)nn2)oc(C(C)=O)c1C(=O)OC,0.947
5,NC(=O)c1cccc(N)c1,1.04
6,O=C(C[C@H]1CC[C@H]2[C@@H](COC[C@@H](O)CN2S(=O)(=O)c2ccc(F)cc2)O1)N1CCc2ccccc2C1,0.883
7,NC[C@H](c1ccccc1)N1CCOCC1,0.947
8,COc1ccc(NC(=O)Nc2ccc3c(c2)[C@H]2C[C@H](CC(=O)NCc4ccccn4)O[C@H](CO)[C@H]2O3)cc1,1.04
9,NCC[C@H]1CC[C@@H](NC(=O)Nc2ccc(F)cc2)[C@H](CO)O1,1.1
10,CO[C@H]1O[C@H](CO)[C@@H](OC(=O)Nc2ccc3c(c2)OCO3)[C@H](OC(=O)Nc2ccc3c(c2)OCO3)[C@@H]1OC(=O)Nc1ccc2c(c1)OCO2,1.08
11,CC(=O)O[C@H]1[C@H](Oc2cc(O)cc(O)c2C(=O)c2cc(O)cc(O)c2)O[C@H](CO)[C@@H](OC(=O)c2ccccc2)[C@@H]1O,0.957
12,C=CCOC(=O)[C@H]1[C@@H]2C(=O)O[C@@H](c3ccccc3)[C@@H](c3ccccc3)N2[C@@H](c2ccc(OCCOC(=O)[C@@H]3C[C@@H]4C(=O)N5CCC[C@H]5C(=O)N4[C@@H]3c3cccc(OCCO)c3)cc2)[C@]12C(=O)Nc1ccc(I)cc12,0.955
13,O=C1CNC(=S)N1c1ccccc1,0.985
14,N#CCC(=O)Nc1ccncc1,0.824
15,CCCNC(=O)Nc1ccc2c(c1)C(=O)N(C)C[C@@H](OC)[C@@H](C)CN(Cc1ccc(-c3ccccn3)cc1)[C@@H](C)CO2,1.18
16,O=C(NCCCO)c1cc2ccccc2oc1=O,0.928
17,COc1cccc(NC(=O)N2C[C@H](O)COC[C@H]3O[C@H](CC(=O)NCCCN4CCOCC4)CC[C@@H]32)c1,1.14
18,O=C(C[C@H]1CC[C@H]2[C@@H](COC[C@@H](O)CN2S(=O)(=O)c2ccc(Oc3ccccc3)cc2)O1)NC1CCC1,1.02
19,Nc1cnn([C@H]2O[C@@H](COC(=O)c3ccccc3)[C@@H](O)[C@@H]2O)c(=O)n1,1.11
20,c1ccc(CN(CC2=NCCN2)c2ccccc2)cc1,1.16
21,C[C@@H]1CN([C@H](C)CO)S(=O)(=O)c2ccc(C#CC3CC3)cc2O[C@H]1CN(C)Cc1ccccc1F,1.4
22,COc1cccc(-c2ccc3c(c2)O[C@H](CN(C)C(=O)C2CCC2)[C@H](C)CN([C@H](C)CO)S3(=O)=O)c1,0.736
23,Cl.NC(N)=NC(=O)Cc1c(Cl)cccc1Cl,0.819
24,Cc1ccc(S[C@]2(C(=O)NCc3ccccc3)CC(=O)N(C3Cc4ccccc4C3)[C@@H]2c2ccc(CO)cc2I)cc1,0.993
25,CC(C)NC(=O)[C@@H]1c2ccccc2C(=O)N(Cc2cc(C(F)(F)F)cc(C(F)(F)F)c2)[C@H]1c1ccc(CO)cc1,0.71

# Source: published antibiotic growth screens (doi:10.1038/s41589-023-01349-8)
